# Earlier results, collected in article PMC10644204 (Pharmacology Research & Perspectives, 2023).
# System: QT interval
# Conditions: supratherapeutic vs therapeutic doses; cited from earlier work
substance,measurement,value
ritonavir‐boosted lopinavir,QT prolongation,QT prolongation with supratherapeutic doses but not therapeutic doses
